# AlphaSeq binding of Ab-91 heavy chain variants to a spike HR2 peptide

Antigen: PDVDLGDISGINAS, a 14-residue peptide of the SARS-CoV-2 spike HR2 region.

Each scFv is VL, a (GGGGS)3 linker, VH, as in the parent Ab-91, and differs from it in the CDRs of the heavy chain only.
VL: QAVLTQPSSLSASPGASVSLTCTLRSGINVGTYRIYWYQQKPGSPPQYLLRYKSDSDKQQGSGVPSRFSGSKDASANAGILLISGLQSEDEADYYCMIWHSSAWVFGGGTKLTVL
VH: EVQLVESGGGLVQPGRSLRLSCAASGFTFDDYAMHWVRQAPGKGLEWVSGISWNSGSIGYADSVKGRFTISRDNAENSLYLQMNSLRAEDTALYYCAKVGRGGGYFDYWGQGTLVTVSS

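Phage display of a naive human antibody library on the peptide gave the parent. The library (AAYL51) carries one to three amino acid substitutions per variant, with no insertions or deletions. AlphaSeq pools MATa yeast showing the antibodies with MATalpha yeast showing the peptide. After mating in shaken culture at 30 °C for 16 h, diploids were selected and their barcode pairs sequenced. The ratio of observed to expected reads was calibrated, replicate by replicate, on BCL2-family standards whose Kd was known from biolayer interferometry. Each pool was mated in three replicate cultures.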

Each variant is given by its three heavy chain CDRs, as the data file delimits them; those of the parent are GFTFDDYAMH, GISWNSGSIGYADSVK, VGRGGGYFDY.
This list gathers variants with a substitution at D107 (VH, numbered from residue 1).
Values are log10 of the apparent Kd in nM; lower means stronger binding.
Averages over replicates are reported, and they cover detected replicates only.
A pair that was not seen in any replicate is written "no signal"; this usually means weak binding, but a binder can also be missed.
In this assay the parent's reference entry averaged 1.86; its copy inside this library read 0.88.
Background: pairings of library AAYL51 with three empty control strains gave a value in 21% of cases (median 4.54, 5th percentile 3.26). Values in that range, when seen in few replicates, are hard to tell from nonspecific mating. The control count says in how many pairings with the empty strains this scFv gave a signal.

| CDR-H1 | CDR-H2 | CDR-H3 | mean log10 Kd (nM) | replicates with signal | empty controls |
|---|---|---|---|---|---|
| GFTFDDYAMH | GISWNSGSGGYADSVK | VGCGGGYFWY | 5.11 | 3/3 | 4/9 |
| GFTFDSYAMH | GHSWNSGSIGYADSVK | VGRGGGYFKY | no signal | 0/3 | 4/9 |
| GFTFDDYAMH | GISDNSGSIGYADSVK | VGRGGVYFNY | no signal | 0/3 | 5/9 |
| GFTFRDYAMH | GISWNSGSIGYADSLK | VGRGGGYFMY | 3.87 | 1/3 | 1/9 |
| GFTRDDYDMH | GISWNSGSIGYADSVK | VGRGGGYFEY | 3.04 | 1/3 | 2/9 |
| GFTFDDYAMH | GISWNTGSIGYADSVK | VGRGCGYFEY | no signal | 0/3 | 0/9 |
| GFTFDDYAMH | GISWNSGSSGYADSVK | VGRGGGWFWY | 4.52 | 2/3 | 5/9 |
| GFTFDDYAMH | GCSWNSGSIGYADSVK | DGRGGGYFMY | 4.12 | 3/3 | 1/9 |
| GFTFDDYAMF | GISWNSGSNGYADSVK | VGRGGGYFFY | no signal | 0/3 | 1/9 |
| GFTWDDYAMH | GISWNSGSIGYADSVT | VGRGGGYFYY | 4.65 | 1/3 | 1/9 |
| GFKFDDYAMH | GISWNSGSIGYADSVK | VGRWGGYFSY | 4.35 | 1/3 | 2/9 |
| GFTFDVYAMH | GISWNSGSIGYADSVK | VGRGGGYFHA | no signal | 0/3 | 0/9 |
| GFTFDDYAMH | GISWNSGSIGYADSVK | VSRGGGYFHY | 5.13 | 2/3 | 4/9 |
| GYTFDDYAMK | GISWNSGSIGYADSVK | VGRGGGYFEY | 3.98 | 2/3 | 3/9 |
| GFTFDCYAMH | GICWNSGSIGYADSVK | VGRGGGYFNY | no signal | 0/3 | 0/9 |
| GFTCDDYAMH | GISWNSGSIGYADSVK | VGRFGGYFCY | 4.77 | 1/3 | 2/9 |
| GFTFDDYAMH | GISWNSGHIGYADSVK | VGRGGGYFNY | 2.38 | 3/3 | 4/9 |
| CFTFDDYAMH | GISWNSKSIGYADSVK | VGRGGGYFTY | 2.69 | 1/3 | 0/9 |
| GFTFDDYAMH | GISWNSGSIGYADSVK | VCRGGTYFPY | no signal | 0/3 | 0/9 |
| GFTFDDYAMH | GISWNSGSIGVADVVK | VGRGGGYFPY | 5.47 | 1/3 | 1/9 |
| GFTFDDYAMH | GKSWNSGSRGYADSVK | VGRGGGYFYY | 4.61 | 1/3 | 2/9 |
| GFTFDDYAMH | GISWNSGSIGYADSVK | VGRGGGYFAY | 3.91 | 1/3 | 5/9 |
| AFTFDDYAMC | GISWNSGSIGYADSVK | VGRGGGYFVY | 5.85 | 1/3 | 5/9 |
| GFTFDDLAMH | GISWGSGSIGYADSVK | VGRGGGYFCY | 4.67 | 2/3 | 5/9 |
| GFTFDDYAMH | GISWNSGSIGYADSVK | VGRGHGYFHR | 1.13 | 3/3 | 1/9 |
| GPFFDDYAMH | GISWNSGSIGYADSVK | VGRGGGYFQY | no signal | 0/3 | 3/9 |
| GFTFDMYAMH | GISWNSGSIGYADSVK | VGRGGGYFKY | 3.95 | 3/3 | 0/9 |
| GFTFDDYAMH | GISWNSGSIGYADSVK | VGSGGGYFFY | no signal | 0/3 | 4/9 |
| GFTFDDYAML | GISWNSGSSGYADSVK | VGRGGGYFLY | 4.42 | 2/3 | 2/9 |
| GFTFDGYAMR | GISWNSGSIGYADSVK | VGRGGGYFYY | 4.50 | 1/3 | 1/9 |
| GFTKDDYAMH | GISWNSGSIGYADSVK | VGRGGGLFEY | 5.13 | 3/3 | 6/9 |
| GFTFDDYFMH | GMSWNSGSIGYADSVK | VGRGGGYFSY | 5.46 | 2/3 | 4/9 |
| GFTFDDYAMH | GISWNSGSIGYADSVK | NGRGGGPFPY | no signal | 0/3 | 0/9 |
| GFTFDDYAMH | GISWNSGSIHYRDSVK | VGRGGGYFHY | 3.25 | 1/3 | 1/9 |
| GFTFDDYAMH | GISWNSGSIGYADSVK | VWRGGGYFVG | 3.65 | 2/3 | 0/9 |
| GFTFDDYAMH | GASWNSGSIGYADSVK | VGRGGGYFGY | 2.97 | 2/3 | 3/9 |
| DFTFDDYAMV | GISWNSGSIGYADSVK | VGRGGGYFGY | no signal | 0/3 | 0/9 |
| GFTFDDYAMH | GISPNSGSIGYADSVK | NGRGGGYFLY | no signal | 0/3 | 2/9 |
| GFTFDDYAEH | GISWNSGSIGYADSVK | VGGGGGYFPY | no signal | 0/3 | 0/9 |
| GFTFDDYAMH | GISWNSGSIGYADSVK | VGRGGGYFWY | 4.97 | 2/3 | 0/9 |
| GFTFDDYAMH | WIHWNSGSIGYADSVK | VGRGGGYFCY | no signal | 0/3 | 0/9 |
| GFTFDDYAMH | GISWNSGSIGYAQSVK | VGRGGGYFLY | 4.48 | 1/3 | 2/9 |
| GFDFDDYAMH | GISWNSGSIGYADSVF | VGRGGGYFLY | no signal | 0/3 | 3/9 |
| GFTFDDYKMH | GISDNSGSIGYADSVK | VGRGGGYFVY | no signal | 0/3 | 2/9 |
| GFTFDDYAMH | NISWNSGSIGYADSVK | VGRGGPYFTY | no signal | 0/3 | 0/9 |
| GFTFDDYAMH | GISWNCGSIGYADSVK | VGRGGGAFAY | 3.73 | 1/3 | 2/9 |
| GFMFDDYAMH | GISWNSGSFGYADSVK | VGRGGGYFAY | no signal | 0/3 | 0/9 |
| GFTFDDYAMH | GISWNAGSKGYADSVK | VGRGGGYFEY | 4.99 | 3/3 | 8/9 |
| GFTFDDYAMH | GISWNSGFIGYADSVC | VGRGGGYFCY | no signal | 0/3 | 0/9 |
| GFTFDDYAMH | GISWNSGSIGYADSVK | WGRGHGYFRY | 3.99 | 1/3 | 3/9 |
| GFTFDDYWMH | GISWNRGSIGYADSVK | VGRGGGYFAY | no signal | 0/3 | 1/9 |
| GFTFDDYAMH | GISWNSGRIGYADSVK | VGRGGGYFYK | 3.60 | 1/3 | 1/9 |
| GFTFDWYAMH | DISWNSGSIGYADSVK | VGRGGGYFQY | no signal | 0/3 | 0/9 |
| GFTFDDYAMH | GTSWNSGSEGYADSVK | VGRGGGYFWY | no signal | 0/3 | 0/9 |
| GFTFDDYAMH | GISWNSGSIGYADWVK | VGIGGGYFWY | no signal | 0/3 | 1/9 |
| GFTFDDYWMH | GISWNSGSIGYADSVK | VGRGGGVFFY | no signal | 0/3 | 2/9 |
| GFTFDDYAMH | GISWLSGSIGYADSVK | VGRGGGEFIY | no signal | 0/3 | 0/9 |
| GFTFDDYAMH | GISWNSGSIGYADSVK | VGRGYFYFRY | no signal | 0/3 | 1/9 |
| GFTFDDYQMH | GISWNSGSIGYADSVK | VGRGGIYFEY | no signal | 0/3 | 0/9 |
| GFTFDDYCMH | GISWNSGSIGYADSVK | VGRGGGYSKY | no signal | 0/3 | 0/9 |
| GFTFDDNAMH | GISWNSGSIGYADSGK | VGRGGGYFAY | 4.38 | 2/3 | 3/9 |
| GFTFDDYAMH | GISWNSGSIGYADSVC | VGRTGGYFWY | 5.96 | 1/3 | 2/9 |
| GFTFDDYAEH | GISWNSGSIGYADSVK | VGRGGGHFRY | no signal | 0/3 | 0/9 |
| GFTFDDYAMC | GISWNSGSIGYADSFK | VGRGGGYFYY | no signal | 0/3 | 2/9 |
| GFTYDDYAMH | GISWNSGSIGYADSVK | VGRGGGYFFY | 2.28 | 3/3 | 3/9 |
| GFTFDDYAMH | GWSWNSGSIGYADSVK | VGRGGGRFCY | no signal | 0/3 | 1/9 |
| GFTFDDNAMH | GISWNSGSIGYADSVK | VGRGGGSFKY | 5.33 | 3/3 | 9/9 |
| GFTFDGYAMH | GISWNSESIGYADSVK | VGRGGGYFMY | 0.11 | 3/3 | 0/9 |
| GFTFDDYAMH | GIEWNSGSIGYADSVK | HGRGGGYFHY | 5.02 | 1/3 | 2/9 |
| GFTFEDYAMH | GISWNSGSKGYADSVK | VGRGGGYFEY | 1.17 | 3/3 | 0/9 |
| GFAFDDYAMH | GISWNSGYIGYADSVK | VGRGGGYFVY | 3.72 | 2/3 | 0/9 |
| GFTFDDYAGH | GISRNSGSIGYADSVK | VGRGGGYFCY | 3.82 | 1/3 | 4/9 |
| GFTFDDYAMH | GISWNSGSIGYADSVK | VGRGGTYTQY | 3.81 | 1/3 | 2/9 |
| GFTFDDFAMH | GISWNSGSIGYADSVK | VCRGGGYFTY | 4.20 | 1/3 | 0/9 |
| GFTFDDYAMH | GISWTSGSIGYADSVK | VGRGGGYETY | 4.35 | 1/3 | 2/9 |
| EFTFDDYAMH | GISWNSGSIGYADSVK | VGRGGGYFSY | no signal | 0/3 | 1/9 |
| GFTFDDYVDH | GISWNSGSIGYADSVK | VGRGGGYFQY | 4.46 | 1/3 | 1/9 |
| GFTFDDYAMH | GISWNSGSIGAADSVK | VGRGGRYFIY | 4.11 | 3/3 | 4/9 |

Picked from the list: the 6 lowest averages where every replicate gave a value.

CDR-H1	CDR-H2	CDR-H3	mean log10 Kd (nM)	replicates with signal	empty controls
GFTFDGYAMH	GISWNSESIGYADSVK	VGRGGGYFMY	0.11	3/3	0/9
GFTFDDYAMH	GISWNSGSIGYADSVK	VGRGHGYFHR	1.13	3/3	1/9
GFTFEDYAMH	GISWNSGSKGYADSVK	VGRGGGYFEY	1.17	3/3	0/9
GFTYDDYAMH	GISWNSGSIGYADSVK	VGRGGGYFFY	2.28	3/3	3/9
GFTFDDYAMH	GISWNSGHIGYADSVK	VGRGGGYFNY	2.38	3/3	4/9
GFTFDMYAMH	GISWNSGSIGYADSVK	VGRGGGYFKY	3.95	3/3	0/9

Source: Engelhart et al. 2022 (doi:10.1038/s41597-022-01779-4), MIT Lincoln Laboratory and A-Alpha Bio; data file from the FLAb repository.